{"source": "patent US20040162467A1", "about": "“Non-invasive transudate extraction” (priority 2001, published 2004)", "assay": "Other analytes: transdermal collection levels versus serum levels", "key": {"[1]": {"conditions": "first group of subjects (no condition given)"}}, "data": [{"substance": "Human Chorionic Gonadotropin: endogenous hormone analyte", "values": [{"measurement": "Serum levels", "setting": "[1]", "result": "0.01-0.9 mIU/ml"}, {"measurement": "Transdermal collection levels", "setting": "[1]", "result": "0.002-0.08 mIU/ml"}, {"measurement": "Serum levels", "setting": "second group: females pregnant", "result": "1.5-100 mIU/ml females"}, {"measurement": "Transdermal collection levels", "setting": "second group: females pregnant", "result": "0.15-11 mIU/ml"}]}]}
